## scFv variants of Ab-95 (light chain) against a SARS-CoV-2 spike peptide

Antigen: PDVDLGDISGINAS, a 14-residue peptide of the SARS-CoV-2 spike HR2 region.

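Variants in AAYL52 differ from the parent at up to three CDR positions; double and triple changes were sampled at random. AlphaSeq pools MATa yeast showing the antibodies with MATalpha yeast showing the peptide. Mating (16 h, 30 °C) was followed by selection of diploids and sequencing of their barcodes. Read counts were normalised to the haploid input and turned into Kd by a linear fit to BCL2-family pairs of known affinity, for each replicate. The assay was run in three technical replicates.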

Each scFv is VH, three GGGGS repeats, VL, as in the parent Ab-95, and differs from it in the CDRs of the light chain only.
VH: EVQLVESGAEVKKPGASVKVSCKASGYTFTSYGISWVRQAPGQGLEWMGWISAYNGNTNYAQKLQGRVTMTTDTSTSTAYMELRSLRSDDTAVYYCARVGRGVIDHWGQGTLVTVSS
VL: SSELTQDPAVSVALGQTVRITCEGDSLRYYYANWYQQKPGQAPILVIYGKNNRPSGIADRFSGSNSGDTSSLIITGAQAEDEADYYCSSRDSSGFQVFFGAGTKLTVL

Sequences are complete VL domains.
Numbers give log10(Kd / nM), so 0 is 1 nM and 3 is 1 µM. Smaller is tighter.
"nd" marks a missing value. The strain was present, yet no cells mated with the target were sequenced in that replicate, which points to weak or no binding.
Three control strains display no target. For library AAYL52, 28% of the pairings with them gave a signal, with a median of 3.91 and one signal in twenty below 2.90, so weak values seen in few replicates may be background. The control count says in how many pairings with the empty strains this scFv gave a signal.

The variant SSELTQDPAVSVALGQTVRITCEMDSLRYYYPNWYQQKPGQAPILVIYGKNNRPSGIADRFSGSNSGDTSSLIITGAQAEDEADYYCSSRTSSGFQVFFGAGTKLTVL gave 2.65, 2.89, 2.63 (controls 8 of 9).
The variant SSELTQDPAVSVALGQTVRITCEGDSARYYYAWWYQQKPGQAPILVIYGKNNRPSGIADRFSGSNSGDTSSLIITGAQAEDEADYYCSSRDKSGFQVFFGAGTKLTVL gave 3.86, 4.28, 3.68 (controls 0 of 9).
The variant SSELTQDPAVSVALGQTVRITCEGDSLRYYYANWYQQKPGQAPILVIYGKNNRPSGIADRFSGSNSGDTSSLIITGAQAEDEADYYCWSRDSSYFQVCFGAGTKLTVL gave nd, nd, nd (controls 3 of 9).
The variant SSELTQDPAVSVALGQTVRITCEGDSLRLYYANWYQQKPGQAPILVIYGLNNRPSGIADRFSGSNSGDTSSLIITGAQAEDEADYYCYSRDSSGFQVFFGAGTKLTVL gave 4.35, nd, 3.58 (controls 4 of 9).
The variant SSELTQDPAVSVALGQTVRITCEGISLRYYYANWYQQKPGQAPILVIYGKNNRPSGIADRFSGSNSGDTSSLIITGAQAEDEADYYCSSRDSSGFDVKFGAGTKLTVL gave 2.55, 2.15, 1.55 (controls 6 of 9).
The variant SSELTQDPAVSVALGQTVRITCEGDSLRYYWANWYQQKPGQAPILVIYGKNNRPSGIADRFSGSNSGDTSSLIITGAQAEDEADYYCSSRASSNFQVFFGAGTKLTVL gave 3.16, 3.17, nd (controls 2 of 9).
The variant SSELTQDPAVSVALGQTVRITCEGDSLRYPYAIWYQQKPGQAPILVIYGKNNRPLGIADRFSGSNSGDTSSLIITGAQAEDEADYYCSSRDSSGFQVFFGAGTKLTVL gave 2.20, 2.54, 2.78 (controls 4 of 9).
The variant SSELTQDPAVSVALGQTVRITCEGDSLRYYHANWYQQKPGQAPILVIYEKNNRPSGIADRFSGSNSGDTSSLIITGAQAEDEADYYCSSRDSSGFQGFFGAGTKLTVL gave 2.38, 1.87, 1.59 (controls 1 of 9).
The variant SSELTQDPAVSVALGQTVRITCEGDSLAYYWANWYQQKPGQAPILVIYGKNNRPSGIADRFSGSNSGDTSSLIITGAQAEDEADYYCSSRDSSGFQVVFGAGTKLTVL gave 3.69, 4.36, nd (controls 2 of 9).
The variant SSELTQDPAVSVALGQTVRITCEGDSLRYYYANWYQQKPGQAPILVIYGKNNRPSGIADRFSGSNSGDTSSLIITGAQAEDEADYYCYMRDSSGFQCFFGAGTKLTVL gave nd, nd, nd (controls 0 of 9).
The variant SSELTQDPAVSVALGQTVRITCEGDELRYYYANWYQQKPGQAPILVIYGKNCVPSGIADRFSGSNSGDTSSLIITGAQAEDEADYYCSSRDSSGFQVFFGAGTKLTVL gave 4.65, nd, nd (controls 1 of 9).
The variant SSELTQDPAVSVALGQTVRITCEGDSLRYYYAEWYQQKPGQAPILVIYGKNNRPSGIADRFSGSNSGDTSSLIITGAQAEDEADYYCSSRDTSGAQVFFGAGTKLTVL gave 3.24, 2.80, 3.49 (controls 5 of 9).
The variant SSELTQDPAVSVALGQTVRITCEGSSLRYYYQNWYQQKPGQAPILVIYGKNNRPSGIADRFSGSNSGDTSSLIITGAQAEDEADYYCSSRDHSGFQVFFGAGTKLTVL gave nd, nd, nd (controls 0 of 9).
The variant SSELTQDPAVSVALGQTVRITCEGDSLRYYYANWYQQKPGQAPILVIYGKNNRPDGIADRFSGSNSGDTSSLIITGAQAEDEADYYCSSLDSTGFQVFFGAGTKLTVL gave 3.39, 4.02, 3.02 (controls 2 of 9).
The variant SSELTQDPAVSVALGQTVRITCEGDSLRYYYANWYQQKPGQAPILVIYLKNNRISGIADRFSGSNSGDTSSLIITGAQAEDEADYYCSSVDSSGFQVFFGAGTKLTVL gave 3.50, 4.97, nd (controls 1 of 9).
The variant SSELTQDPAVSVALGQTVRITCEGDSLRYYDANWYQQKPGQAPILVIYSKNNRPSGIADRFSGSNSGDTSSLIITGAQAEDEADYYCQSRDSSGFQVFFGAGTKLTVL gave 2.27, 2.45, 1.86 (controls 1 of 9).
The variant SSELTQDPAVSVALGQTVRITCEGDQLRYYYAEWYQQKPGQAPILVIYGKNNRQSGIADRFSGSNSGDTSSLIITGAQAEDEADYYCSSRDSSGFQVFFGAGTKLTVL gave nd, nd, 4.44 (controls 5 of 9).
The variant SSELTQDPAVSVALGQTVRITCEGDSLRYYYANWYQQKPGQAPILVIYGKNNRRSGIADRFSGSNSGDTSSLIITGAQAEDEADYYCSSDDSSGFQVCFGAGTKLTVL gave 3.52, 3.16, 2.67 (controls 5 of 9).
The variant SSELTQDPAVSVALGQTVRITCEGDSLRYYYANWYQQKPGQAPILVIYGKNNFPSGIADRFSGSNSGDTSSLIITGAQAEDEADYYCSSRISSGMQVFFGAGTKLTVL gave 3.13, nd, nd (controls 3 of 9).
The variant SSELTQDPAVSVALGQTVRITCPGDSLRYYYANWYQQKPGQAPILVIYGKNNRPSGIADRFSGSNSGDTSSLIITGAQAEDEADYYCSSIDSKGFQVFFGAGTKLTVL gave 5.09, 4.83, 4.58 (controls 6 of 9).
The variant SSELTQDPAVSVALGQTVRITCEGDSLRYYYANWYQQKPGQAPILVIYGKNNRPAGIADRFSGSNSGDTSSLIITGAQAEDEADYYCSKRDSSGFQQFFGAGTKLTVL gave 3.35, 3.35, 3.79 (controls 5 of 9).
The variant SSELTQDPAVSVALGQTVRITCEGDSLRYYYAPWYQQKPGQAPILVIYGKNNRPSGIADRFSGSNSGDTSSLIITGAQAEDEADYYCSSRDSSGFQLNFGAGTKLTVL gave 5.53, 3.96, nd (controls 2 of 9).
The variant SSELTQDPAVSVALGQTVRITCEGDSWRYYYASWYQQKPGQAPILVIYGKNNRPSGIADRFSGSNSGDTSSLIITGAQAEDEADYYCSSRDSYGFQVFFGAGTKLTVL gave nd, nd, nd (controls 2 of 9).
The variant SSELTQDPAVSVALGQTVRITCEFDSLRYYYANWYQQKPGQAPILVIYGKNNRPSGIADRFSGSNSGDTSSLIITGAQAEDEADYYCSSRDSDGFQVFFGAGTKLTVL gave 3.14, 5.49, nd (controls 4 of 9).

Top 2 of the variants detected in all replicates, tightest first:

VL,"replicates, log10 nM",control signals
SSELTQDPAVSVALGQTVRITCEGDSLRYYHANWYQQKPGQAPILVIYEKNNRPSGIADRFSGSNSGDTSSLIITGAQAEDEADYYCSSRDSSGFQGFFGAGTKLTVL,"2.38, 1.87, 1.59",1 of 9
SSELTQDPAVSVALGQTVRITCEGISLRYYYANWYQQKPGQAPILVIYGKNNRPSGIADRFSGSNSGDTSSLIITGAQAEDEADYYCSSRDSSGFDVKFGAGTKLTVL,"2.55, 2.15, 1.55",6 of 9

Values reported by Engelhart et al. 2022, doi:10.1038/s41597-022-01779-4 (FLAb copy).